# Measurements as given in PubChem BioAssay AID2461 (Johns Hopkins Ion Channel Center, 2010).
# Only a part is listed here, and it is no random draw. Calls of active or inactive are those of the source.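 Rule for the calls: active = primary screen active and over 50% activation in each of two duplicate runs; inactive = the rest.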
# Tested on: transient receptor potential cation channel C4 beta (TRPC4), mouse
# Assay: activators of mouse TRPC4 channel, confirmation, cell-based, second round, Fluo4, HEK293 TRPC4beta/mu-opioid, 1 µM (AID 2461)
# Details: Fluo4 calcium fluorescence, at 1 µM
row,SMILES,outcome
1,CN(C)CCOC(=O)C(O)(c1ccccc1)C1CCCC1 (configuration not stated),inactive
2,CCN(CC)CCCOC(=O)C(O)(c1ccccc1)c1ccccc1,inactive
